Amino acid sequences for entries named in this document (tags omitted). Residues count along the entry.
UniProt D3ZZK3, 20-986: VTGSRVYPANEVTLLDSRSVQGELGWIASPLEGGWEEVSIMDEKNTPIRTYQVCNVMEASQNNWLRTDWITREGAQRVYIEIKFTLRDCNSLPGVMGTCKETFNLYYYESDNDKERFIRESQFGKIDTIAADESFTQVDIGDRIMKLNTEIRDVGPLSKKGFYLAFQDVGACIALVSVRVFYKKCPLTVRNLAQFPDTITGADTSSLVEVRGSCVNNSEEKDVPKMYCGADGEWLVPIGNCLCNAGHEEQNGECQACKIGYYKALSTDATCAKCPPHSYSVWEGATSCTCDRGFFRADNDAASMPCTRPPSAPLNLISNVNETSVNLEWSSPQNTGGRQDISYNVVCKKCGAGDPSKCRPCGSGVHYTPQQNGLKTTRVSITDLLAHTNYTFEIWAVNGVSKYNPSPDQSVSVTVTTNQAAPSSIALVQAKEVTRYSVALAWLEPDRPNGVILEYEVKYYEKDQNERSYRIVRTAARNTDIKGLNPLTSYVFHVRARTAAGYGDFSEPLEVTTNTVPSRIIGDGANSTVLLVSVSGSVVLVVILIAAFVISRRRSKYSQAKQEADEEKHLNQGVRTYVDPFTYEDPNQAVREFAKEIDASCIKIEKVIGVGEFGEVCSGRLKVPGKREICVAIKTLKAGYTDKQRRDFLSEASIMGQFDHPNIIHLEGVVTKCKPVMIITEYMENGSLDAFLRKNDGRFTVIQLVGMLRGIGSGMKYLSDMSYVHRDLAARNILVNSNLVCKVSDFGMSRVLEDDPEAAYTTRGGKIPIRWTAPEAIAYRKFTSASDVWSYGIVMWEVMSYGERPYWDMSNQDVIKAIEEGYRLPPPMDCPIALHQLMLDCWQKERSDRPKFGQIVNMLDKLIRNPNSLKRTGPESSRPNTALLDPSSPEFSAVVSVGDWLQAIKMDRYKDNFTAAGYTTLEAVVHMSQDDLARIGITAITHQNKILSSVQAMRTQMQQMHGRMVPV

According to patent publication US9765116B2, “Inhibitors of the Eph-A receptor and uses thereof” (Carmel Haifa University Economic Corporation Ltd., priority 2013, dated 2017):

Assays:
EphA4 [1] = target: T1, EphA4 (Rattus norvegicus, UniProt D3ZZK3); experiment: In vitro pull down model using rat brain homogenate, Western blot for EphA4; assay type: binding; parameters: Homogenized rat brain was used as a source for EphA4 receptor; from tissue; host or cells: rat brain homogenate; details: 20 micrograms peptide, rat brain lysate, Streptavidin Agarose
Procedure: (§1) A pull-down assay was performed to test the affinity of peptide 1 and peptide 2 to EphA4 receptor. Homogenized rat brain was used as a source for EphA4 receptor. Rat brains were homogenized with Tris(tris(hydroxymethyl)aminomethane) buffer comprising 50 millimolar (mM) tris, 1% NP-40 and 2 mM ethylenediaminetetraacetic acid. Peptides 1 and 2, in amounts of 20 micrograms, were respectively incubated for 1 hour with equal amounts of brain lysate diluted with 50 mM Tris buffer at room temperature, followed by incubation for 1 hour with 50 microliters of Streptavidin Agarose. The samples were washed with 50 mM Tris buffer. Proteins were then eluted with boiled sample buffer and separated using gel electrophoresis (SDS-PAGE).
(§2) Western blot analysis was then performed to determine binding affinity to EphA4 receptor. Blots were blocked with blocking buffer (5% non-fat dry milk in wash buffer (10 mM Tris pH 7.5, 100 mM NaCl, 0.1% Tween 20)) for 1 hour at room temperature. Blots were then subjected to purified mouse anti-EphA4/Sek monoclonal antibodies, (1:3000—BD Transduction Laboratories) or rabbit eEF2 (elongation factor 2) antibody (1:1000—Cell Signaling) in blocking buffer for 1 hour at room temperature. […] The blots were subjected to electrochemiluminescence for 1 minute and visualized and quantified using a charge-coupled device camera (XRS; Bio-Rad).

EphA4 [2] = target: T1, EphA4; experiment: ephrinA4-induced EphA4 tyrosine phosphorylation in brain slices containing the amygdala (immunoprecipitation, Western blot); assay type: cell-based; parameters: brain slices that contain the amygdala were divide to 3 groups; from tissue; host or cells: brain slices containing the amygdala; details: pep-ephrinA4 for 20 minutes followed by ephrinA4-Fc for 20 minutes
Procedure: Further, brain slices that contain the amygdala were divide to 3 groups: 1) placed in Ringer's solution, 2) placed in Ringer's solution and stimulated with ephrinA4-Fc for 20 minutes or 3) placed in Ringer's solution with pep-ephrinA4 for 20 minutes followed by stimulation with ephrinA4-Fc for 20 minutes (n=3 each). Protein extracts from the slices were immunoprecipitated with anti-EphA4 antibody and subjected to Western blot with anti-EphA4 or anti-phosphotyrosine antibodies.

[3] = target: T2, eukaryotic elongation factor 2 (eEF2) (Rattus norvegicus, UniProt P05197); experiment: In vitro pull down model using rat brain homogenate, Western blot for eEF2 control; assay type: binding; details: 20 micrograms peptide, rat brain lysate
T2 construct: incubated for 1 hour with equal amounts of brain lysate; from tissue; host or cells: rat brain homogenate
Procedure: as §1, §2

Substance | binding to EphA4 receptor (pull-down) (EphA4 [1]) | ephrinA4-induced EphA4 receptor tyrosine phosphorylation (EphA4 [2]) | binding to eukaryotic elongation factor 2 (eEF2), control [3]
Ac-RRWSGYEACTAEG-Lys(Biotin)-NH2-0H [peptide 2, reference compound] | does not |  | 
Ac-RRQRYTPFPLGFE-Lys(Biotin)-NH2-0H [peptide 1] | binds | abolished | did not bind
